Test results published in patent publication US7511068B2, “Mercaptoimidazoles as CCR2 receptor antagonists” (Janssen Pharmaceutica, N.V., priority 2003, dated 2009).

Chains of the proteins cited; added tags and fusions are not shown. Residues count along the entry.
UniProt P41597, 1-360 isoform 2: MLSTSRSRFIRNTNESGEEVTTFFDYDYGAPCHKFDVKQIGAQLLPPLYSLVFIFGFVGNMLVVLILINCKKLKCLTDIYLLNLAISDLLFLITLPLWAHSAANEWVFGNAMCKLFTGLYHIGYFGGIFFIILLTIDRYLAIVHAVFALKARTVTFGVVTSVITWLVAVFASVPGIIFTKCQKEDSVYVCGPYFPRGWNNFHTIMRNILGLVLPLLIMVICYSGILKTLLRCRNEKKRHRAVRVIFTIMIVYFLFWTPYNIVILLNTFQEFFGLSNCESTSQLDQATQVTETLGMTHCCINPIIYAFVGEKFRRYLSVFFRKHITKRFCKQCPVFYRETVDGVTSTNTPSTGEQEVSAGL

Each compound was assayed against CCR2 receptor (Homo sapiens, UniProt P41597) (assay: Inhibition of MCP-1 induced Ca-flux in human THP-1 cells). Conditions: inhibition of specific MCP-1 (10^-7 M hMCP-1) induced Ca2+ flux in human THP-1 cells; pIC50 = -log IC50 (molar).
Protocol: C. Pharmacological Example Inhibition of MCP-1 Induced Ca-flux in Human THP-1 Cells
MCP-1 binding to the CCR2 receptor induces a rapid and transient intracellular release of Ca^2+ (secondary messenger) in several cell lines (Charo et al, PNAS 1994). Free Ca^2+ levels can be measured using a Ca^2+ sensitive dye. When the CCR2 receptor is blocked with a CCR2 receptor antagonist, the MCP-1 induced release of Ca^2+ is inhibited.
Human THP-1 cells (monocytic cell line, ATCC TIB-202) were cultured in RPMI 1640 medium supplemented with 10% fetal calf serum (FCS), 1% L-Glutamine, penicillin (50 U/ml) and streptomycin (50 μg/ml) (all GIBCO BRL, Gent). After centrifugation, cells were loaded for 30 minutes with the Ca^2+ sensitive fluorescent dye Fluo-3 AM (Molecular Probes, Leiden, Netherlands) (2 million cells/ml in RPMI medium containing 4 μM Fluo-3 AM, 20 mM HEPES, 0.1% Bovine Serum Albumin (BSA) and 5 mM probenecid). Excess dye was removed by 3-fold washing with buffer (5 mM HEPES, 140 mM NaCl, 1 mM MgCl2, 5 mM KCl, 10 mM glucose, 2.5 mM probenecid, 1.25 mM CaCl2, 0.1% BSA; all further incubations were done in this buffer). Cells were plated at a density of 150 000 cells/well in dark-wall 96-well plates (Costar, Cambridge, Mass.) and sedimented by centrifugation (1 minute). The cells were pre-incubated for 20 minutes with test compound. Then, 10^−7 M hMCP-1 (Bachem, Bubendorf, Switserland) was added. Changes in intracellular free Ca^2+ concentration were measured using the Fluorescent Imaging Plate Reader (FLIPR, Molecular Devices, Munchen, Germany). Fluorescence was recorded every second from 10 seconds before the addition of the MCP-1 till 2 minutes after the addition (first minute: 60 records with 1 second intervals, second minute 20 records with 3 second intervals).
The maximal fluorescence obtained during this time frame was used for further calculations.
Table 4 reports pIC50 values obtained in the above-described test for compounds of formula (I). pIC50 defines −log IC50 wherein IC50 is the molar concentration of the test compound which inhibits 50% of specific MCP-1 induced Ca^2+ flux.

Compound | pIC50
O=c1[nH][nH]c(=O)c2c1[nH]c(=S)n2C(c1ccc(Cl)c(Cl)c1)C1CCCCC1 (stereo not shown) | 5.55
O=c1[nH][nH]c(=O)c2c1[nH]c(=S)n2C(c1ccccc1)c1ccc(Cl)c(Cl)c1 (stereo not shown) | 5.19
CCOC(=O)c1c[nH]c(=S)n1C(CC)c1ccc(F)c(F)c1 (stereo not shown) | 6.125

Results, then the compound that gave them:

pIC50 | Compound
5.78 | CCC(c1ccc(Cl)c(Cl)c1)n1c(C(=O)NNC(C)=O)c[nH]c1=S (stereo not shown) [Compound 119]
7.53 | CCC(c1ccc(Br)c(Br)c1)n1c(C(=O)OC)c(C(=O)OC)[nH]c1=S (stereo not shown)
6.145 | CCC(c1ccc(F)c(F)c1)n1c(=S)[nH]c2c(=O)[nH][nH]c(=O)c21 (stereo not shown)
6.28 | CCC(c1ccc(Cl)c(Cl)c1)n1c(=S)[nH]c2c(=O)[nH][nH]c(=O)c21 (stereo not shown)
